Test results reported in patent US9624218B2 (Eli Lilly and Company, priority 2014, dated 2017).
Structures can show the parent of a compound that is named as a salt.

Legend:
[1] = system: EGFP-Axin2 fusion protein; settings: read-out: Axin2 Stabilization EC50; HEK293 EGFP-Axin2 cells, 24 hours; Mean ± SEM
[2] = system: Wnt-inducible genes (TCF/LEF luciferase reporter in DLD-1 TOPFlash cells); experiment: cells; settings: Homo sapiens, DLD-1, 24 h, read-out: Wnt-inducible gene expression inhibition IC50, DLD-1 TOPFlash cells, 24 hours; Mean ± SEM

Compound: CN1CCCc2c1nc(N1CCN(Cc3ncccc3C(F)(F)F)CC1)[nH]c2=O [Example 35, 8-Methyl-2-[4-[[3-(trifluoromethyl)-2-pyridyl]methyl]piperazin-1-yl]-3,5,6,7-tetrahydropyrido[2,3-d]pyrimidin-4-one dihydrochloride]
- EC50 [1]: 27.8 nM
- IC50 [2]: 5.8 nM
